Tests used:
m4 muscarinic receptor = m4 muscarinic receptor (Homo sapiens, UniProt P08173); conditions: m4 + Gq-i5, % of carbachol response (10 μM)
[1] = molecular target: alpha 2 C2 adrenergic receptor (Homo sapiens, UniProt P18089)

Amino acid sequences for entries named in this document (tags omitted).
UniProt P08173, whole entry: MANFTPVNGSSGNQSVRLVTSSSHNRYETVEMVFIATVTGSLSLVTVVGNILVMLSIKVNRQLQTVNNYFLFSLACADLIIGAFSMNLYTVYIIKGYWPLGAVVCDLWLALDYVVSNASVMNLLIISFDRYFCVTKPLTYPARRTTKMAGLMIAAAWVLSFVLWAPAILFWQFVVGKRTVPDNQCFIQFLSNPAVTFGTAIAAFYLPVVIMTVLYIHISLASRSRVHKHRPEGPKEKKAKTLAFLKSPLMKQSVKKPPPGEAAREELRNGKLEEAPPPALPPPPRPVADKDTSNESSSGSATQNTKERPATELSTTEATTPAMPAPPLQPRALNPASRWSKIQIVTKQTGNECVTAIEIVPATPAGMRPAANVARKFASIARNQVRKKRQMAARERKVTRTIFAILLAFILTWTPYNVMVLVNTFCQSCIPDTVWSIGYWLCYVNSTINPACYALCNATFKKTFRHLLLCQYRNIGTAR
UniProt P18089, whole entry: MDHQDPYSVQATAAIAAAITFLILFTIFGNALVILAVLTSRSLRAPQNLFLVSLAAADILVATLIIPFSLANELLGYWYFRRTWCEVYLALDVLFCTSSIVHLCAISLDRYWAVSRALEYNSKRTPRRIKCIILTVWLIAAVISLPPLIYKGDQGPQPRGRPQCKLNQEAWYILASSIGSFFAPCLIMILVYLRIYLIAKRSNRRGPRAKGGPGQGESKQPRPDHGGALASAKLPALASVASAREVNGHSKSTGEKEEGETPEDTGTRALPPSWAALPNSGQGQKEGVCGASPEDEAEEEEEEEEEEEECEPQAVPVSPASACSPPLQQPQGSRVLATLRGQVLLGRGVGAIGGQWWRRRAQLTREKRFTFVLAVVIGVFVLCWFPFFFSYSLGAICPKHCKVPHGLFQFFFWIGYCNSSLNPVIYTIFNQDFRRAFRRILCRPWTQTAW

SMILES: C[N+](C)(C)CCOC(N)=O [carbachol]
- % Max (m4 muscarinic receptor): 100%

SMILES: Clc1cc(I)cc(Cl)c1N=C1NCCN1 [p-I-Clonidine]
- EC50 [1]: 50 nM

SMILES: Nc1cc(Cl)c(N=C2NCCN2)c(Cl)c1 [p-NH2-Clonidine]
- EC50 [1]: 400 nM

Source: patent US5707798A, “Identification of ligands by selective amplification of cells transfected with receptors” (priority 1994, dated 1998)
